US20170239455A1 (priority 2014, published 2017)

Conditions: water content 0.2%, heptane phase read at 525 nm

II [molecular iodine]
molecular iodine stored in absolute ethanol maintained as I2: over 50%
